Laboratory results published in patent publication US11883526B2 (priority 2019, dated 2024).
Entries after “also recorded” stand apart in the source; their conditions may differ.

How the values were obtained:
[1] = tested on: female Sprague-Dawley rats; assay: Single dose neurotoxicity study: brain histopathology (neuronal necrosis in PCG/RSC); details: 1 mg/kg sc; for neuronal necrosis (Olney lesions) in the PCG/RSC: single and repeated dose studies
Method: In order to prepare for brain histopathology examination, all main study animals were perfused at necropsy. Prior to the perfusion, rats were anesthetized with isoflurane. After injection of 0.1 ml heparin, the blood of the rat was flushed out with a physiological saline solution by intraarterial insertion of a needle in the abdominal aorta. Thereafter the rat was perfused with glutaraldehyde 3% in potassium phosphate 0.09M and 1.4% sucrose. Due to logistic constraints at maximum 30 animals could undergo the whole-body perfusion procedure on a given day. Therefore, a staggered start of treatment was applied to all 5 groups of main study animals. Consequently, subgroups of 4 main study animals of the vehicle- and 36 and 54 mg-dosed groups, and 5 main study animals of the 72 mg-dosed and positive control groups, were dosed on 6 consecutive days, respectively.
The vehicle control, positive control, and esketamine HCl-dosed animals were sacrificed at either 48 hours (i.e., the first 12 or 15 rats per group) or 96 hours after the dose administration time (i.e., the last 12 or 15 rats per group). The brain tissue of the vehicle control-, positive control- and esketamine HCl-treated rats were processed at the same time and handled in the same way in batches of 4 or 5 animals per group.
Brain tissue was sampled and processed routinely. The trimmed and embedded tissue was sectioned and stained with hematoxylin-eosin (HE). Histoprocessing and staining were carried out in three batches of 4 animals per group (each batch thus containing 4 animals from vehicle control-, positive control- and the three esketamine HCl-treated groups). In the single dose study duplicate brain sections were stained with Fluoro-Jade (FJ).
Histopathological examination was performed on 7 levels of brain tissue according to Bolon (2013. Toxicol. Pathol. 41(7), 1028-1048) from the vehicle control-, positive control-, and high dose esketamine HCl-treated groups in the single dose study, and in all groups in the repeated dose study.
The microscopic finding of neuronal necrosis in the PCG/RSC of the brain was graded unilaterally according to the number of necrotic neurons observed over the total length of the PCG/RSC structure visible in the tissue section (usually around 3-5 mm) utilizing the following criteria: […]

[2] = tested on: female Sprague-Dawley rats; assay: 14-day repeated dose neurotoxicity study: brain histopathology (neuronal necrosis in PCG/RSC); details: 1 mg/kg sc

## (+)MK-801 maleate
[1]
  neuronal necrosis (Olney lesions) in the PCG/RSC: presence; also recorded: neuronal necrosis was observed; also recorded: all treated animals
[1]; listed as (+)MK801 maleate
  neuronal necrosis (Olney lesions) in the PCG/RSC: all rats
[1]; listed as (+)MK-801
  neuronal necrosis (Olney lesions) in the PCG/RSC: presence
[1]; single dose study
  animals with lesions scored marked: 25 out of 30
[2]
  animals with lesions scored marked: 7 out of 12
